Holding throughout (format): biochemical
Experiment [1] deals with T1, Pim-1 (Homo sapiens (Human), UniProt P11309). Briefly: Pim-Mn enzyme assay (HTRF, 384-well), Pim-1. As to conditions: Pim-1 enzyme 5 pM, ATP 1.5 μM, BAD (S112) 0.5 μM, 22-point curve, read-out: Pim-1-Mn IC50 IP. (Time-resolved FRET reads energy transfer from a long-lived donor to a nearby acceptor.)
In experiment [2] the target is T1, Pim-1. As to the kind of experiment: Pim enzyme assay (HTRF, 96-well), Pim-1. To be noted: full length recombinant Pim-1, biotinylated-BAD (S112) peptide, 10-point curve, 2 h RT, read-out: Pim-1 IC50 IP.
The target of experiment [3] is T2, Pim-2 (Homo sapiens (Human), UniProt Q9P1W9). As to the kind of experiment: Pim-Mn enzyme assay (HTRF, 384-well), Pim-2. As to conditions: Pim-2 enzyme 0.5 pM, ATP 1.5 μM, BAD (S112) 0.5 μM, 22-point curve, read-out: Pim-2-Mn IC50 IP.
For experiment [4], the target named is T2, Pim-2. Briefly: Pim enzyme assay (HTRF, 96-well), Pim-2. As to conditions: full length recombinant Pim-2, biotinylated-BAD (S112) peptide, 10-point curve, 45 min RT, read-out: Pim-2 IC50 IP.

Amino acid sequences for entries named in this document (tags omitted). A change or cut given only in a name is not applied to a line headed by its entry.
UniProt P11309, whole entry: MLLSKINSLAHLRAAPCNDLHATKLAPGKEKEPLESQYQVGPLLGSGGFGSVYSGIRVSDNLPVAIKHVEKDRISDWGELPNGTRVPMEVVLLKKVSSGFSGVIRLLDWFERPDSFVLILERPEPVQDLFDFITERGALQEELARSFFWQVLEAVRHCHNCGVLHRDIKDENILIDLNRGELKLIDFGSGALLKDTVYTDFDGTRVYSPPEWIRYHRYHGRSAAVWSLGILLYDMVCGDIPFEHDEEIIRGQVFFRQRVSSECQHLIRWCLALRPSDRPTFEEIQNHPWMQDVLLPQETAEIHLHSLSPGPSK
UniProt Q9P1W9: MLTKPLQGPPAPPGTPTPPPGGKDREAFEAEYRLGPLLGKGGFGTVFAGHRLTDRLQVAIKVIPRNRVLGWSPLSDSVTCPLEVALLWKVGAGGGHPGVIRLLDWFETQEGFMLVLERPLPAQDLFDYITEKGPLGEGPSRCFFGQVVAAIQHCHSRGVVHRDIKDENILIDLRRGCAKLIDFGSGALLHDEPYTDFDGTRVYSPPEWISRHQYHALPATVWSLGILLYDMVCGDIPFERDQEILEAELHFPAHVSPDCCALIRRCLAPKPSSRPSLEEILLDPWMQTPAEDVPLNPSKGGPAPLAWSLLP

The structures appear in SMILES notation.

In general, IC50 refers to the concentration that gives 50% inhibition.

With `C[C@H]1NC(=O)c2cc(-c3cccc4c(=O)[nH]c(N(C)C(C)(C)C)nc34)[nH]c21` [Example 407, 2-(tert-butyl(methyl)amino)-8-((6R)-6-methyl-4-oxo-1,4,5,6-tetrahydropyrrolo[3,4-b]pyrrol-2-yl)-4(3H)-quinazolinone], in experiment [1], the IC50 came to 0.18 nM.
Still for that read-out and setting: the value for `Cc1nc2cccc(-c3cc4c([nH]3)CCNC4=O)c2nc1NC1CCCOC1` (single isomer, unassigned) [Example 208, 2-(2-methyl-3-((tetrahydro-2H-pyran-3-yl)amino)quinoxalin-5-yl)-6,7-dihydro-1H-pyrrolo[3,2-c]pyridin-4(5H)-one] was 2.7 nM.
Take `CCC1CNC(=O)c2cc(-c3cccc4ccc(Nc5ccccc5)nc34)[nH]c21` (racemic) [Example 24, rac-7-ethyl-2-(2-(phenylamino)quinolin-8-yl)-6,7-dihydro-1H-pyrrolo[3,2-c]pyridin-4(5H)-one]: the IC50 in experiment [2] stood at 0.7 nM.
With `Cc1nc2cccc(-c3cc4c([nH]3)CCNC4=O)c2nc1CC(C)(C)C` [Example 272, 2-(3-(2,2-dimethylpropyl)-2-methyl-5-quinoxalinyl)-1,5,6,7-tetrahydro-4H-pyrrolo[3,2-c]pyridin-4-one], the IC50 in experiment [1] is 6.9 nM.
On to `CC(Oc1ccc2cccc(-c3cc4c([nH]3)CCNC4=O)c2n1)C(F)(F)F` (racemic) [Example 79, rac-2-(2-((1,1,1-trifluoropropan-2-yl)oxy)quinolin-8-yl)-6,7-dihydro-1H-pyrrolo[3,2-c]pyridin-4(5H)-one], for which, in experiment [2], the IC50 is 54.8 nM.
Regarding `Cc1nc2cccc(-c3cc4c([nH]3)CCNC4=O)c2nc1NC1CCS(=O)(=O)C1` (racemic) [Example 74, 2-(3-(((±)-1,1-dioxidotetrahydro-3-thiophenyl)amino)-2-methyl-5-quinoxalinyl)-1,5,6,7-tetrahydro-4H-pyrrolo[3,2-c]pyridin-4-one], the IC50 is 20.5 nM in experiment [3] and 22.1 nM in experiment [1].
On to `Cc1nc2ccc(F)c(-c3cc4c([nH]3)[C@H](C)NC4=O)c2nc1NC(C)(C)C` [Example 298, (6S)-2-(3-(tert-butylamino)-6-fluoro-2-methyl-5-quinoxalinyl)-6-methyl-5,6-dihydropyrrolo[3,4-b]pyrrol-4(1H)-one], for which, in experiment [3], the IC50 turned out to be 0.201 nM.
Take `CC[C@@H]1CNC(=O)c2cc(-c3cccc4ccc(Nc5ccccc5)nc34)[nH]c21` [Example 25, (R)-7-ethyl-2-(2-(phenylamino)quinolin-8-yl)-6,7-dihydro-1H-pyrrolo[3,2-c]pyridin-4(5H)-one]: in experiment [2], the 50% inhibitory concentration (IC50) is 2.4 nM.
Turning to `Cc1nc2cccc(-c3cc4c([nH]3)CCNC4=O)c2nc1NC(C)(C)CNC(=O)OC(C)(C)C` [Example 339, tert-butyl (2-methyl-2-((3-methyl-8-(4-oxo-4,5,6,7-tetrahydro-1H-pyrrolo[3,2-c]pyridin-2-yl)-2-quinoxalinyl)amino)propyl)carbamate], the IC50 in experiment [3] was 61.8 nM.
`CCC1CNC(=O)c2cc(-c3cccc4ccc(Cl)nc34)[nH]c21` (racemic) [Example 22, rac-2-(2-chloroquinolin-8-yl)-7-ethyl-6,7-dihydro-1H-pyrrolo[3,2-c]pyridin-4(5H)-one]: the concentration for half-maximal inhibition (IC50) in experiment [4] was found to be 248 nM.
In the case of `Cc1nc2ccc(F)c(-c3cc4c([nH]3)[C@@H](C)NC4=O)c2nc1NC(C)(C)C` [Example 297, (6R)-2-(3-(tert-butylamino)-6-fluoro-2-methyl-5-quinoxalinyl)-6-methyl-5,6-dihydropyrrolo[3,4-b]pyrrol-4(1H)-one], the 50% inhibitory concentration (IC50) in experiment [3] was 0.109 nM.
On the same count and under the same terms, the value for `CC(=O)N1CCc2[nH]c(-c3cccc4nc(C)c(NC(C)(C)C)nc34)cc2C1=O` [Example 315, 5-acetyl-2-(3-(tert-butylamino)-2-methylquinoxalin-5-yl)-6,7-dihydro-1H-pyrrolo[3,2-c]pyridin-4(5H)-one] was 45.4 nM.
Consider `Cc1nc2cccc(-c3cc4c([nH]3)CCNC4=O)c2nc1NC1CCC(=O)N(C)C1` (racemic) [Example 195, rac-2-(2-methyl-3-((1-methyl-6-oxopiperidin-3-yl)amino)quinoxalin-5-yl)-6,7-dihydro-1H-pyrrolo[3,2-c]pyridin-4(5H)-one 2,2,2-trifluoroacetate], for which the IC50 in experiment [2] was determined as 50.9 nM.
On to `CC(=O)N[C@@H]1CC[C@@H]1Nc1nc2c(-c3cc4c([nH]3)CCNC4=O)cccc2nc1C` (racemic) [Example 56, rac-N-(cis-2-((3-methyl-8-(4-oxo-4,5,6,7-tetrahydro-1H-pyrrolo[3,2-c]pyridin-2-yl)-2-quinoxalinyl)amino)cyclobutyl)acetamide], for which the IC50 was found to be 38.3 nM in experiment [3] and 22.7 nM in experiment [1].
Consider `CC1CNC(=O)c2cc(-c3cccc4ccc(Oc5ccccc5)nc34)[nH]c21` (racemic) [Example 28, rac-7-methyl-2-(2-phenoxyquinolin-8-yl)-6,7-dihydro-1H-pyrrolo[3,2-c]pyridin-4(5H)-one], for which the IC50 in experiment [2] came out at 14.9 nM.
For `CCCNc1nc2c(-c3cc4c([nH]3)CCNC4=O)cccc2nc1C` [Example 191, 2-(2-methyl-3-(propylamino)-5-quinoxalinyl)-1,5,6,7-tetrahydro-4H-pyrrolo[3,2-c]pyridin-4-one], the IC50 in experiment [2] amounted to 9.3 nM.
Consider `CC(=O)N[C@@H]1CC[C@@H]1Nc1nc2c(-c3cc4c([nH]3)CCNC4=O)cccc2nc1C` (single isomer, unassigned) [Example 58, N-(cis-2-((3-methyl-8-(4-oxo-4,5,6,7-tetrahydro-1H-pyrrolo[3,2-c]pyridin-2-yl)-2-quinoxalinyl)amino)cyclobutyl)acetamide], for which the IC50 in experiment [3] stood at 180 nM; in experiment [1], 60 nM.
As for `Cc1nc2cccc(-c3cc4c([nH]3)CCNC4=O)c2nc1NC1CCCCCC1` [Example 134, 2-(3-(cycloheptylamino)-2-methylquinoxalin-5-yl)-6,7-dihydro-1H-pyrrolo[3,2-c]pyridin-4(5H)-one], the IC50 in experiment [4] was 13.9 nM.
`Cc1nc2cccc(-c3cc4c([nH]3)[C@@H](C)NC4=O)c2nc1N[C@H]1CCC[C@@H](NCC(F)(F)F)C1` [Example 487, (6R)-6-methyl-2-(2-methyl-3-(((1S,3R)-3-((2,2,2-trifluoroethyl)amino)cyclohexyl)amino)-5-quinoxalinyl)-5,6-dihydropyrrolo[3,4-b]pyrrol-4(1H)-one]: the IC50 in experiment [3] worked out at 0.267 nM.
For the compound `CC(C)(C)Nc1nc2c(-c3cc4c([nH]3)CCNC4=O)cccc2nc1C=O` [Example 282, 3-(tert-butylamino)-5-(4-oxo-4,5,6,7-tetrahydro-1H-pyrrolo[3,2-c]pyridin-2-yl)-2-quinoxalinecarbaldehyde], the IC50 in experiment [3] is 11.8 nM.
Take `Cc1nc2cccc(-c3[nH]c4c(c3Cl)C(=O)NCC4)c2nc1NC(C)(C)C` [Example 348, 2-(3-(tert-butylamino)-2-methyl-5-quinoxalinyl)-3-chloro-1,5,6,7-tetrahydro-4H-pyrrolo[3,2-c]pyridin-4-one]: the values for the IC50 in experiment [3] and in experiment [1] were 0.454 nM and 0.455 nM, respectively.
On to `Cc1nc2cccc(-c3cc4c([nH]3)CCCNC4=O)c2nc1NC(C)(C)C` [Example 305, 2-(3-(tert-butylamino)-2-methylquinoxalin-5-yl)-5,6,7,8-tetrahydropyrrolo[3,2-c]azepin-4(1H)-one], for which, in experiment [3], the IC50 was 8.14 nM.
As to `O=C1NCCc2[nH]c(-c3cccc4ccc(Oc5cccc(O)c5)nc34)cc21` [Example 109, 2-(2-(3-hydroxyphenoxy)quinolin-8-yl)-6,7-dihydro-1H-pyrrolo[3,2-c]pyridin-4(5H)-one], in experiment [2], the half-maximal inhibitory concentration (IC50) came out at 4.1 nM.
For `C[C@H]1NC(=O)c2cc(-c3cccc4c(=O)n(C)c(N[C@H]5CCC[C@@H](N)C5)nc34)[nH]c21` (racemic) [Example 506, (rac)-2-(((cis)-3-aminocyclohexyl)amino)-3-methyl-8-((6R)-6-methyl-4-oxo-1,4,5,6-tetrahydropyrrolo[3,4-b]pyrrol-2-yl)-4(3H)-quinazolinone], the IC50 in experiment [1] amounted to 0.2 nM.
On to `CC[C@H]1CNC(=O)c2cc(-c3cccc4ccc(Nc5ccccc5)nc34)[nH]c21` [Example 239, (S)-7-ethyl-2-(2-(phenylamino)quinolin-8-yl)-6,7-dihydro-1H-pyrrolo[3,2-c]pyridin-4(5H)-one], for which the IC50 in experiment [2] worked out at 0.7 nM.
On the same count and under the same terms, the value for `O=C1NCCc2[nH]c(-c3cccc4ccc(C5(c6ccccc6)CC5)nc34)cc21` [Example 114, 2-(2-(1-phenylcyclopropyl)quinolin-8-yl)-6,7-dihydro-1H-pyrrolo[3,2-c]pyridin-4(5H)-one] was 4.1 nM; that for `CC1CNC(=O)c2cc(-c3cccc4ccc(Cl)nc34)[nH]c21` (racemic) [Example 27, rac-2-(2-chloroquinolin-8-yl)-7-methyl-6,7-dihydro-1H-pyrrolo[3,2-c]pyridin-4(5H)-one] was 153 nM.
Turning to `CC(=O)N[C@@H]1CC[C@@H]1Nc1nc2c(-c3cc4c([nH]3)CCNC4=O)cccc2nc1C` (single isomer, unassigned) [Example 59, N-(cis-2-((3-methyl-8-(4-oxo-4,5,6,7-tetrahydro-1H-pyrrolo[3,2-c]pyridin-2-yl)-2-quinoxalinyl)amino)cyclobutyl)acetamide], the IC50 in experiment [3] was 25.7 nM; in experiment [1], 19 nM.
As for `CC1Cc2[nH]c(-c3cccc4ccc(Cl)nc34)cc2C(=O)N1` (racemic) [Example 31, rac-2-(2-chloroquinolin-8-yl)-6-methyl-6,7-dihydro-1H-pyrrolo[3,2-c]pyridin-4(5H)-one], in experiment [2], the IC50 was 370 nM.
On the same count and under the same terms, the value for `O=C1NCCc2[nH]c(-c3cccc4ccc(Sc5ccccc5)nc34)cc21` [Example 5, 2-(2-(phenylthio)quinolin-8-yl)-6,7-dihydro-1H-pyrrolo[3,2-c]pyridin-4(5H)-one] was 4.9 nM.
